Experimental data taken from US20110319287A1, “MODULATOR ASSAY” (ADDEX PHARMA S.A., priority 2009, published 2011).

System: TNF-induced relocalisation of EYFP-TRADD (TNFR1-containing complex I) in HeLa cells
Assay: TNF-mediated relocation of fluorescently tagged TRADD in Clone #49-E2 HeLa cells, 384-well (Example 2)
Type: cell-based, human
Conditions: FIG. 11
Protocol: In another embodiment of the invention, the fluorescently labelled reporter molecule EYFP-TRADD was transformed into HeLa cells as described in Example 1 to produce clone #49-E2 cells. The following experimental procedure to detect the reporter molecule in the presence of absence of a “test” compound (or molecule, as described below) was conducted.
On day 1, 10^3 cells per well were plated in thin glass bottom 384 wells plate in 50 μl of culture media (DMEM glutamax, 10% FBS, peni-strep, geneticin, hygromycin). The cells were incubated overnight at 37° C. On day 2, media was aspirated, and 35 μl of warm DMEM, 2, 5% FBS, HEPES 10 mM added. Then, 15 μl of 4× the test compound diluted in DMEM, 2, 5% FBS, HEPES 10 mM was added to cells using a Biomek laboratory automation workstation (Beckman-Coulter). This was incubated at room temperature for 1.5 min. Then, 20 μl of 4×TNF (or TL1A or IL1b) diluted in DMEM, 2, 5% FBS, HEPES 10 mM was added to the cells using the Biomek workstation, and the cells were incubated at 37° C. for 15 min. The cells were washed three times with PBS 1× using an Embla 384 Cell Washer (Molecular Devices). […] Readings were then taken on the Scientific Cellomics ArrayScan HCS Reader automated microscope system as used in Example 1.

TNF: recombinant human TNF-α from Peprotech, Cat N° 300-01A
TNF-dependent relocalisation of EYFP-TRADD: dose-dependent relocalisation
